From ChEMBL document CHEMBL1629585, “Nationwide survey of CTX-M-type extended-spectrum beta-lactamases among Klebsiella pneumoniae isolates in Slovenian hospitals” (2009)

How the values were obtained:
Klebsiella pneumoniae = experiment: Antibacterial activity against Klebsiella pneumoniae C expressing CTX-M group 1 beta-lactamase by Etest method; format: functional
Escherichia coli = conditions: J53-2

Sequence: GENTAMICIN
- MIC (Klebsiella pneumoniae): 0.5 µg/mL
- MIC (Escherichia coli): 0.5 µg/mL
